{"source": "ChEMBL document CHEMBL6103626", "about": "“Structure-Based Design of New LSD1/EGFRL858R/T790M Dual Inhibitors for Treating EGFR Mutant NSCLC Cancers” (J Med Chem, 2025)", "test": "Selectivity index, ratio of IC50 for inhibition of wild-type EGFR (unknown origin) using Glu/Tyr as substrate to IC50 for inhibition of EGFR L858R/T790M mutant (unknown origin) using Glu/Tyr as substrate", "settings": "tested as the 2H-labelled form"}
{"smiles": "C=CC(=O)Nc1cc(Nc2nccc(-c3cn(C)c4ccccc34)n2)c(OC)cc1N1CCC(C)(N)CC1", "values": [{"measurement": "Ratio IC50", "value": 116}]}
